The record followed here is article PMC4528135, “Kinetic Investigations of the Role of Factor Inhibiting Hypoxia-inducible Factor (FIH) as an Oxygen Sensor” (The Journal of Biological Chemistry, 2015).

Chains of the proteins cited; added tags and fusions are not shown. Residues count along the entry.
UniProt Q9GZT9, 181-426: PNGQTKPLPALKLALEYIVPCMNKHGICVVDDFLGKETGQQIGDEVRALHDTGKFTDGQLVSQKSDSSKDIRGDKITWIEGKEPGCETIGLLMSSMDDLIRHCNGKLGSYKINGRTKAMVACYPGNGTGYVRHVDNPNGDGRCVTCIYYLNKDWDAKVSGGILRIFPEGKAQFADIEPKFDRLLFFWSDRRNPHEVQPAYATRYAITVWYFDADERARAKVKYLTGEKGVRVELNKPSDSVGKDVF

Holding throughout (type): biochemical
The target in experiment [1] is T1, PHD2 (catalytic domain, residues 181–426) (Homo sapiens, UniProt Q9GZT9).
T1 construct: The catalytic domain of PHD2 (residues 181–426) was purified as described; made in house
Put plainly: Steady-state kinetics of PHD2-catalyzed HIF-α CODD/NODD hydroxylation (MALDI-TOF-MS). As to conditions: 4 mM L-ascorbate, 50 mM HEPES pH 7.5, 37 °C; for Km: 50 μM Fe(II), triplicate assays. As for the experimental part:
(§1) Enzymatic assays were conducted as described ([46], [47]). Unless otherwise stated, the assay mixture typically contained 5 μM FIH, 500 μM substrate, 500 μM 2OG, 1 mM L-ascorbate, and 50 μM Fe(NH4)2(SO4)2 or 4 μM PHD2, 100 μM substrate, 300 μM 2OG, 4 mM L-ascorbate, and 50 μM Fe(NH4)2(SO4)2. For HIF-1α CODD19-mer, the background levels of methionine oxidation resulting from assay conditions were subtracted based on non-enzymatic controls ([48]).
(§2) The O2 dependence of FIH-catalyzed reactions was determined by conducting enzymatic assays in an “In vivo 500 Hypoxia Workstation” (Ruskinn) using buffers pre-equilibrated under different pO2 values for 24 h. The O2 dependence of PHD2-catalyzed reactions was determined by conducting enzymatic assays in sealed glass vials with variable N2/O2 contents ([42]). Reactions were stopped by spotting samples onto a matrix-assisted laser desorption/ionization-time of flight mass spectrometry (MALDI-TOF-MS) target plate and immediately mixing with α-cyano-4-hydroxycinnamic acid matrix. Hydroxylation levels were assessed by MALDI-TOF-MS as described ([46]).

Experiment [2] addresses T2, PHD2 (Homo sapiens, UniProt Q9GZT9).
T2 construct: The catalytic domain of PHD2 (residues 181–426) was purified as described; made in house
Put plainly: Stopped-flow UV-visible spectroscopy, PHD2·Fe(II)·2OG·substrate + O2. As to conditions: anaerobic 0.8 mM PHD2, 1 mM peptide, 5 mM 2OG, 50 mM HEPES pH 7.5, mixed 1:1 with O2-saturated buffer at 5 °C, double exponential fit. As for the experimental part: Stopped-flow UV-visible spectroscopy experiments were performed as described previously ([32], [42]). […] The reaction was observed over 1000 s using a photodiode array detector, and kinetic traces were analyzed using Origin version 8.51 software. Data were fitted with a double exponential function (y = A1 × exp(−kriset) + A2 × exp(−kfallt) + y0). The A1, A2, and y0 parameters were restricted with upper limits to match the observed amplitude/offset changes.
Previously reported pre-steady-state kinetic studies on PHD2 focused on its reaction with CODD HIF-1α 19-mer peptide ([38], [42]); there is no reported information on the rates of PHD2 reaction with O2 in the presence of NODD HIF-1α or HIF-2α substrates. […] Reactions were initially observed using a photodiode array detector, and difference spectra (in comparison with the reaction with O2-free buffer) were subsequently analyzed.
FIGURE 5. […] B, stopped-flow kinetic traces at 520 nm showing absorbance changes in control experiments: Fe(II) only, mix of Fe(II) and 2OG, reaction of PHD2·Fe(II)·2OG complex with O2 in the absence of CODD; reaction of PHD2·Fe(II)·N-oxalylglycine (NOG)·CODD complex with O2. […] C, stopped-flow kinetic traces at 520 nm showing absorbance species formed on PHD2-catalyzed HIF-1α NODD 19-mer peptide hydroxylation (black) and recombinant protein (HIF-1α(344–503)) hydroxylation (red). […]

For experiment [3], the target named is T2, PHD2. Put plainly: Time course of PHD2-catalyzed peptide hydroxylation. As to conditions: 4 μM PHD2, 100 μM peptide, 50 μM Fe(II), 300 μM 2OG, 1 mM L-ascorbate, 50 mM HEPES pH 7.5, 37 °C, atmospheric O2; MALDI-TOF-MS; triplicate assays. As for the experimental part: as §1
FIGURE 3. PHD2- and FIH-catalyzed hydroxylation of HIF-1/2α peptide substrates. A, time course of HIF-1/2α CODD19-mer peptide hydroxylation; B, time course of HIF-1/2α NODD19-mer peptide hydroxylation. Conditions were as follows: 4 μM PHD2, 100 μM peptide, 50 μM Fe(II), 300 μM 2OG, 1 mM L-ascorbate in HEPES 50 mM (pH 7.5) were incubated at 37 °C at atmospheric O2. C, time course of HIF-1α CAD 19- and 35-mer peptide hydroxylation. D, time course of HIF-2α CAD 19- and 35-mer peptide hydroxylation. Conditions were as follows: 5 μM FIH, 500 μM peptide, 50 μM Fe(II), 500 μM 2OG, 1 mM L-ascorbate in HEPES 50 mM (pH 7.5) were incubated at 37 °C at atmospheric O2. The different hydroxylation levels were analyzed by MALDI-TOF-MS. Error bars, S.D. of triplicate assays.

Experiment [4] has as its target T2, PHD2. The experiment is described as follows: O2 dependence of PHD2-catalyzed hydroxylation (sealed vials, N2/O2 mixes). As to conditions: PHD2 with the named 19-mer substrate; 4 μM PHD2, 50 μM Fe(II), 4 mM L-ascorbate, 50 mM HEPES pH 7.5, 37 °C, O2 levels set by mass flow controllers; triplicate assays; read-out: Km^app(O2). The method, then: as §2
FIGURE 4. O2 dependence of FIH- and PHD2-catalyzed hydroxylation of HIF-1/2α. A, O2 dependence of PHD2-catalyzed hydroxylation of HIF-1/2α CODD/NODD 19-mer peptides. 4 μM PHD2, peptide (varied), 50 μM Fe(II), 2OG (varied), 4 mM L-ascorbate in HEPES 50 mM (pH 7.5) were incubated at 37 °C. The different O2 levels were maintained using mass flow controllers ([42]), and the hydroxylation levels were analyzed by MALDI-TOF-MS. B, O2 dependence of FIH-catalyzed hydroxylation of CAD HIF-1/2α 35-mer peptides. Conditions were as follows. 5 μM FIH, 500 μM peptide, 50 μM Fe(II), 1 mM 2OG, 1 mM L-ascorbate in HEPES 50 mM (pH 7.5) were incubated at 37 °C in a hypoxia work station under different pO2. […] Error bars, S.D. of triplicate assays.

In experiment [5] the target is T2, PHD2. Put plainly: Rapid quench-flow, PHD2 pre-steady-state product and succinate formation. As to conditions: same mixture as stopped-flow, O2-saturated buffer 1:1, 5 °C, quenched with 1% CF3CO2H. The method, then: Rapid quench-flow experiments were performed using the same conditions and preparation of the assay mixture as used in stopped-flow experiments. Rapid quench-flow equipment (TgK Scientific Ltd.) in an anaerobic glove box was used for the experiments. Samples were quenched with 1% CF3CO2H and analyzed using MALDI-TOF-MS (peptide hydroxylation) as described above or liquid chromatography-mass spectrometry (LC-MS, for succinate production). For LC-MS, chromatographic separation was performed at 50 °C using a Waters ACQUITY BEH Amide 1.7-μm, 2.1 × 100-mm column on a Waters ACQUITY^TM ultraperformance liquid chromatography system (Waters Corp., Milford, MA). The following eluents were used: mobile phase A: 10% H2O, 90% acetonitrile (v/v), 10 mM ammonium formate; mobile phase B: 50% H2O, 50% acetonitrile (v/v), 10 mM ammonium formate. […] Analytes were detected in negative ionization mode using single reaction monitoring on a Quattro triple quadrupole mass spectrometer (Waters) with a cone voltage of 15 V and a capillary voltage of 3.0 kV. […]
To investigate correlation of the spectroscopic observations with rates of product accumulation, equivalent reactions were analyzed by rapid quench-flow methodology. […] The level of peptide hydroxylation was assessed by MALDI-TOF-MS ([42]), and succinate accumulation was analyzed by LC-MS. […]

Values joined by “and” are separate entries in the source; they are usually repeats but may differ in a detail not shown here. Identical values can stand only once. Like-named read-outs stand apart in the source and are kept apart here. A value given as a limit tells only on which side of the number the result lay.

By Km is commonly meant the concentration of substrate that gives half-maximal velocity. On to “DALTLLAPAAGDTIISLDF [HIF-1α NODD, 19-mer fragment (395–413) of the HIF-1α N-terminal oxygen-dependent degradation domain, PHD2 substrate]”, for which the “kcat^app” value in experiment [1] (PHD2, 4 μM PHD2, 50 μM Fe(II)) was 0.028 ± 0.001 s⁻¹. Moreover, the Km is 11 ± 2 µM in experiment [1] (PHD2, 4 μM PHD2, peptide varied, 300 μM 2OG, read-out: Km^app(peptide)); 30 ± 9 µM in experiment [1] (PHD2 with the named substrate, 4 μM PHD2, 2OG varied, read-out: Km^app(2OG)); above 450 µM on PHD2 [4]. In addition, at PHD2 [2], the “Stopped-flow, 520 nm (PHD2) krise phase” value turned out to be 0.002 ± 0.001 s⁻¹. Further, at PHD2 [2] (traces average of triplicate, listed as NODD HIF-1α), the “Stopped-flow, 520 nm (PHD2) kfall phase” value was 0.178 ± 0.002 s⁻¹ and 0.178 ± 0.006 s⁻¹. The “substrate hydroxylation after 15 min” value on PHD2 [3] was 50%. For the same sequence, the Rapid quench-flow kproduct at PHD2 [5] (peptide hydroxylation by MALDI-TOF-MS, single exponential fit) was found to be 0.0080 ± 0.0020 s⁻¹. For the same sequence, on PHD2 [5] (succinate by LC-MS), the Rapid quench-flow ksuccinate is 0.0060 ± 0.0010 s⁻¹.
